Laboratory results published in US11702418B2, “SOS1 inhibitors” (priority 2019, dated 2023).

The chains behind the UniProt entries cited, without tags or fusion partners. Residues count along the entry.
UniProt Q07889, 560-1049: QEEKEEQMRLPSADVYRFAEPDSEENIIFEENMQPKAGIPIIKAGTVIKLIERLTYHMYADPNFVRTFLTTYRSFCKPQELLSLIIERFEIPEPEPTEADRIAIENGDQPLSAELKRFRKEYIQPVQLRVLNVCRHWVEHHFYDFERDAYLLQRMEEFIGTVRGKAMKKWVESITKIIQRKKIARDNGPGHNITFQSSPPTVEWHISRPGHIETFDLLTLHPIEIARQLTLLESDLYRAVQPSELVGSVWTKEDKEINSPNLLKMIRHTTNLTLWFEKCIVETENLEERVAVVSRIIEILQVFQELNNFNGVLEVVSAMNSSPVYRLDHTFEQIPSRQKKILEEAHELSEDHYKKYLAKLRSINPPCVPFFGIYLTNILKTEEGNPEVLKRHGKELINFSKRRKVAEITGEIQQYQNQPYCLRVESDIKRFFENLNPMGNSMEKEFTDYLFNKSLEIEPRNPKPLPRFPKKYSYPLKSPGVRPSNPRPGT

Key:
[1] = test system: pERK in MKN1 cells; test: cells; format: cell-based; conditions: Homo sapiens
[2] = molecular target: recombinant human SOS1 polypeptide (amino acids 560-1049) (Homo sapiens (Human), UniProt Q07889); conditions: read-out: Ki, Inhibition of Labeled Tracer Binding to SOS1
[3] = HTRF displacement, Cy5 labelled tracer, Morrison equation for competitive binding
[4] = MKN-1, pERK inhibition, In-Cell Western, MKN1 or H358 cells (Table 24 does not say which), 0.5-1 hour incubation, read-out: IC50

**Q.** What does the source list for `Cc1c([C@@H](C)Nc2nnc(N(C)C)c3ccc(N4CCNCC4)cc23)cccc1C(F)(F)F` [9-2]?
**A.** IC50 ([1]; MKN-1): 176 nM; Ki [2, 3]: 0.93 nM

**Q.** Which IC50 [1, 4] does the source give for `Cc1c([C@@H](C)Nc2nnc(C)c3ccc(N4CCN(C)C(=O)C4)cc23)cccc1C(F)(F)F` [Example 6-7, (R)-1-methyl-4-(1-methyl-4-((1-(2-methyl-3-(trifluoromethyl)phenyl)ethyl)amino)phthalazin-6-yl)piperazin-2-one] here?
**A.** 74 nM

**Q.** What about the Ki [2, 3] of the same compound?
**A.** 0.29 nM

**Q.** `Cc1c([C@@H](C)Nc2nnc(C)c3cnc(N4CCOCC4)cc23)cccc1C(F)(F)F` [Example 6-12, (R)-4-methyl-N-(1-(2-methyl-3-(trifluoromethyl)phenyl)ethyl)-7-morpholinopyrido[3,4-d]pyridazin-1-amine] was tested. Which IC50 [1, 4] did it give?
**A.** 30 nM

**Q.** What about the Ki [2, 3] of the same compound?
**A.** 0.88 nM

**Q.** What does the source list for `Cc1c(C#N)cccc1[C@@H](C)Nc1nnc(C)c2cc(C(F)(F)F)c(N3CCOCC3)cc12` [Example 19-2, (R)-2-methyl-3-(1-((4-methyl-7-morpholino-6-(trifluoromethyl)phthalazin-1-yl)amino)ethyl)benzonitrile]?
**A.** IC50 ([1]; MKN-1, pERK inhibition, In-Cell Western, MKN1 or H358 cells (Table 24 does not say which), 0.5-1 hour incubation): 779 nM; Ki [2]: 95 nM

Where two headings read alike, the source gives them in different places.
